How the values were obtained:
[1] = Racemic modafinil:malonic acid co-crystal pharmacokinetic study in dogs (vs micronized pure modafinil); assay type: in vivo
Protocol: As a reference, micronized modafinil with a median particle size of about 2 micrometers was also administered in the study. […] Such a higher bioavailability illustrates the modulation of an important pharmacokinetic parameter due to an embodiment of the present invention. A compilation of important pharmacokinetic parameters measured during the animal study are included in Table V.

[2] = Pharmacokinetic study with dogs: modafinil:malonic acid formulated with lactose vs PROVIGIL tablets; assay type: in vivo; details: 200 mg modafinil, Mean
Excerpt: Severel important pharmacokinetic parameters are described in Table VI. In Table VI, “Cmax” is the maximum blood plasma concentration, “AUC (inf)” is the extrapolated area under the curve, “t1/2” is the amount of time for the blood plasma level to decrease to half of the Cmax level beginning at administration, “Tmax” is the time to maximum blood plasma concentration from administration, “CL” is the clearance rate of modafinil, and “F %” is the percent bioavailability.

With “Racemic Modafinil:Malonic Acid Co-crystal [Modafinil: malonic acid co-crystal]” as the substance, how does the Half-life [1] read?
The Half-life was 5.1 ± 2.4 h.

What about the t1/2 [2] of the same substance?
The t1/2 was 1.63.

Source: patent publication US7566805B2, “Modafinil compositions” (priority 2003, dated 2009)
